Values of other authors, collected in US9062321B2 (priority 2004, dated 2015).

Chains of the proteins cited; added tags and fusions are not shown. Residues count along the entry.
UniProt P22303, 32-614: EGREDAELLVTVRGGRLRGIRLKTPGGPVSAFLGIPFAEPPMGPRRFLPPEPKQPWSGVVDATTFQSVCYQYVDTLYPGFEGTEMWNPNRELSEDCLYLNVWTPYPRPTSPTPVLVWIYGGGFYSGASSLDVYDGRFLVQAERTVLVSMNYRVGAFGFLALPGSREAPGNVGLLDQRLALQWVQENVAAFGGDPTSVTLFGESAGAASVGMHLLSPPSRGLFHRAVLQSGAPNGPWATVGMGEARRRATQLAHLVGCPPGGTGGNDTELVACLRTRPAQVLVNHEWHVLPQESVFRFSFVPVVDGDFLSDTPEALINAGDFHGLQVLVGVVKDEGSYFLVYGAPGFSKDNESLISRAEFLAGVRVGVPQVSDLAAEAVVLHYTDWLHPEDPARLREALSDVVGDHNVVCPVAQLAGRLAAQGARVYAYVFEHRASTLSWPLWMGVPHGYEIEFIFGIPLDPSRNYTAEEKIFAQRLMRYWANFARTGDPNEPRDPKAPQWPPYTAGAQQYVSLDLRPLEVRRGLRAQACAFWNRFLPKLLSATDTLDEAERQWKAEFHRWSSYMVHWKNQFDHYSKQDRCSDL
UniProt P06276, 29-602: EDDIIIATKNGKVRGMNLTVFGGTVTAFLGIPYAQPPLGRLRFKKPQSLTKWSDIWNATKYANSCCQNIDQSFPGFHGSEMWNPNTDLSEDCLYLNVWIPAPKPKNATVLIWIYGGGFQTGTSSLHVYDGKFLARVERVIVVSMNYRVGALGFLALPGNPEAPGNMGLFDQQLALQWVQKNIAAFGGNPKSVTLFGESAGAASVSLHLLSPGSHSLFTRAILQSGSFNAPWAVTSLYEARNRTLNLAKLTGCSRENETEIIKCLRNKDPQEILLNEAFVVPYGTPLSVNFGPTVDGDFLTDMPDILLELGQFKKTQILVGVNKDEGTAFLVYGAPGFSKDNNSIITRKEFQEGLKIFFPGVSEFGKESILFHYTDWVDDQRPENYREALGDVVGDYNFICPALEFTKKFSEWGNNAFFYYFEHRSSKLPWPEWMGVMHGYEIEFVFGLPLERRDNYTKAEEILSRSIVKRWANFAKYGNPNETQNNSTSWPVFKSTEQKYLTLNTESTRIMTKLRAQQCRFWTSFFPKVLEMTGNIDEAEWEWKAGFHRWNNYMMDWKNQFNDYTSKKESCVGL

Key:
AChE = AChE (Homo sapiens, UniProt P22303); settings: cited from earlier work
BuChE = BuChE (Homo sapiens, UniProt P06276); settings: read-out: Ki (measure of inhibitor efficiency) for BuChE; cited from earlier work

**Q.** Which results are given for C=CC[N+](C)(C)c1ccc(CCC(=O)CCc2ccc([N+](C)(C)CC=C)cc2)cc1 [BW284c51, 1,5-bis(4-allyldimethylammoniumphenyl)pentan-3-one dibromide]?
**A.** sensitivity of AChE to the inhibitor compared with BuChE (AChE): much more sensitive; Ki (BuChE): 14 µM
